Earlier results, collected in patent US20170015852A1, “INK COMPOSITION” (KERACOL LIMITED, priority 2014, published 2017).

Test system: human health

Which “threat to human health” value does the source give for anthocyanins here?
Its value is “pose no threat to human health”.
